Experimental data from patent US20190315834A1 (KAHR MEDICAL, published 2019).

Amino acid sequences for entries named in this document (tags omitted). A change or cut given only in a name is not applied to a line headed by its entry. Residues count along the entry.
UniProt Q08722, 19-139: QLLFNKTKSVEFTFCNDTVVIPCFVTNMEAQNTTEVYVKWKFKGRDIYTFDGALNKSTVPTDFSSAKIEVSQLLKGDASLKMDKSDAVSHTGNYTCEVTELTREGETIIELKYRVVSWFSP

Target: T1, CD47:Fc (Sino Biological, cat #12283-H02H) (UniProt Q08722, in part)
T1 construct: Bought reagent, loaded on the BLI biosensor; not shown: Fc portion of the bought reagent
Test: bio-layer interferometry (Blitz), biosensor pre-loaded with CD47:Fc
Method: The binding of the SIRPα domain of the molecule to CD47 and the binding of the CD70 domain of the molecule to CD27 was determined by the bio-layer interferometry Blitz® assay. Materials—His-tagged SIRPα-CD70 protein (SEQ ID NO: 5) produced as described in Experiment 1A hereinabove; CD47:FC (Sino Biological, cat #12283-H02H), PD1-CD70 protein (SEQ ID NO: 6, as a negative control),
Methods and results—The biosensor was pre-loaded with CD47:Fc, which led to a stable association plateau (FIG. 3). Upon subsequent incubation with His-tagged SIRPα-CD70 protein (SEQ ID NO: 5) a rapid association of the His-tagged SIRPα-CD70 protein (SEQ ID NO: 5) to CD47:Fc was detected (FIG. 3, upper line). […] Upon reaching a stable association plateau, the biosensor was washed with medium to determine the off-rate of the His-tagged SIRPα-CD70 protein from CD47:Fc.

binding result: no binding
B1: PD1-CD70 protein (SEQ ID NO: 6) (other)
chain: HHHHHHPGWFLDSPDRPWNPPTFSPALLVVTEGDNATFTCSFSNTSESFVLNWYRMSPSNQTDKLAAFPEDRSQPGQDCRFRVTQLPNGRDFHMSVVRARRNDSGTYLCGAISLAPKAQIKESLRAELRVTERRAEVPTAHPSPSPRPAGQFQTLVGQRFAQAQQQLPLESLGWDVAELQLNHTGPQQDPRLYWQGGPALGRSFLHGPELDKGQLRIHRDGIYMVHIQVTLAICSSTTASRHHPTTLAVGICSPASRSISLLRLSFHQGCTIASQRLTPLARGDTLCTNLTGTLLPSRNTDETFFGVQWVRP
notes: Negative control fusion protein; also called control protein PD1-CD70
